The values below come from patent publication US20230110354A1, “THERAPEUTIC AGENT DELIVERY SYSTEMS AND METHODS OF FORMING AND USES THEREOF” (The Regents of the University of Colorado, a Body Corporate, priority 2020, published 2023).

Series [1] can be described thus: In vitro protein release test from SRTG micelle system (ELISA). It is filed as physicochemical. The protocol: Proton nuclear magnetic resonance (1H NMR) was completed with a Varian Inova 500 NMR spectrometer. 1H NMR was used to confirm the structure of PEG-PSHU-PEG. The PEG-PSHU-PEG samples to be analyzed were dissolved in 600 μL of DMSO-d6. Protein Release Test. SRTG 5 wt % polymeric solutions (SRTG+VEGF+NPs+PDGF+IL-10) were created using PBS with 0.2% BSA with samples run in triplicates. Solutions were mixed and left to dissolve overnight at 4° C. 500 ng of each of IL-10, the VEGF, and the PDGF was added to the gels at different times. The micelle NPs loaded with the PDGF were added 30 min before gelling, and the VEGF and IL-10 were added 10 min before gelation. 50 μL gels were formed in 2 mL vials and placed in a 37° C. incubator for 5 min to promote gelation and encapsulation of proteins and micelles. Then, 1 mL of warm (37° C.) release solution (lx PBS with 0.2% BSA) was added to the vials. After 5 min, 1 mL of release solution was removed from each sample for the day 0 time point, and 1 mL of fresh warm release solution was added. Samples were then taken every 24 h and immediately placed in a −80° C. freezer for further analysis. Enzyme-linked immunosorbent assay (ELISA) was used to quantify the concentration of proteins in the release solution samples following the manufacturer's instructions (Peprotech, Rocky Hill, N.J.). ELISA color development was monitored with a BioTek Synergy 2 Multi-Mode Reader at 405 nm with wavelength correction set at 650 nm. The results of three replicates were averaged. The hydrogels were initially allowed to stabilize for 5 min at which a sample was taken to determine the loading efficiency of the proteins in the hydrogels (day 0).
In general terms: In an ELISA, binding on a coated surface is turned into a signal by an enzyme label.

For series [2] the following is noted: delivered intravenously; cited from earlier work.

For VEGF, in series [1] (SRTG 5 wt% + micelle NPs, 500 ng of each protein, day 0 sample after 5 min), the “loading efficiency of protein in the hydrogel” value was determined as 79%. In addition, the “loaded protein released by day 1 (burst release)” value in series [1] (SRTG 5 wt% + micelle NPs, PBS with 0.2% BSA, 37° C.) is reported as “approximately 63%”. Moreover, the sustained release rate in series [1] (after day 0 / day 1 through 28 days, SRTG micelle system) amounted to 0.77 ng per day. The half-life result in series [2] was “over 30 min”.
